# Source: PubChem BioAssay (National Center for Advancing Translational Sciences (NCATS))
# This is a sample that favours compounds with a hit; in the whole collection about 16% have one here.
# miR-21 FLuc: miR-21 reporter, rising signal; HeLa miR-21 FLuc reporter, luciferase, 48 h; Potency, µM (titrated, usually from 38.3 µM); 340,000 tested, under 10 active; AID 2288; active = well fitted rising curve with a large enough effect; inconclusive = small, poorly fitted or top-dose-only effect; inactive = no such curve, though single readings can be large or run the other way;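 also: miR-21 action dims this reporter so a rising signal means less miR-21 action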
#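 Using DMEM plus 10% FBS, HeLa miR-21-FLuc cells are incubated with test compounds (final up to about 40uM) for 48 hours; firefly luciferase signal is then imaged following reagent-mediated lysis.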
# TDP1 cell noCPT: qHTS for Inhibitors of human tyrosyl-DNA phosphodiesterase 1 (TDP1): qHTS in cells in absence of CPT. hit rate 15% among 420,000. DT40 Tdp1-/- hTDP1 cells, no CPT, ATP luminescence, 48 h. Potency, µM (doses to about 46.2 µM), usual class: inhibitors; further: nearly all actives have a fitted effect of over 55% in size
#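 Seeded 400 DT40-hTDP1 cells/well (vehicle DMSO, no 20 nM CPT); pinned compounds; ≥48 hr at 37 °C; CellTiter-Glo luminescence as viability measure.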
# uPA surface inh: inhibitors of cell surface uPA generation; cell surface uPA generation assay, qHTS; AID 540303; hit rate 0.31% among 330,000; Potency, µM (series often up to 38.3 µM), hits mostly inhibitors; active means well fitted inhibition curve with a large enough effect; inconclusive means small, poorly fitted or top-dose-only effect; inactive means no such curve, though single readings can be large or run the other way; tested in mouse RAW 264.7 cells; further: nearly all actives have a fitted effect of over 55% in size
# DT40 TDP1 CPT: DT40-hTDP1 cell growth loss with CPT; Potency, µM (series often up to 46.2 µM), actives largely listed as inhibitors; AID 686979; chicken DT40 Tdp1-/-;hTDP1 cells + 20 nM CPT, ATP luminescence, 48 h; hit rate 12% among 420,000; further: nearly all actives have a fitted effect of over 55% in size
#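 Chicken DT40 Tdp1-/- cells complemented with human TDP1, 400 cells/well, exposed to compounds plus 20 nM camptothecin for at least 48 h at 37 C; viability read as ATP content by CellTiter-Glo luminescence.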
# TDP1 block: TDP1 (human) enzyme inhibition | Q9NUW8 | recombinant TDP1, AlphaScreen DNA substrate cleavage | Potency, µM (titrated, usually from 130 µM), actives largely listed as inhibitors | hit rate 0.28% among 350,000 | AID 485290; further: nearly all actives have a fitted effect of over 40% in size
#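 Tdp1 1 nM final; 15 min RT w/ cpd; substrate 15 nM, 5 min; beads 10 ug/ml, 10 min; AlphaScreen read. Neg ctrl: no enzyme.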
# A number is an active result; . = inactive; ? = inconclusive; / = not tested or not shown; [ ] = dose if it differs, or a comment. Unless noted, the call rests on the fitted dose curve; in most records, active means well fitted curve in the direction sought with a large enough effect; inconclusive means small, poorly fitted or top-dose-only effect, or another doubt; inactive means no such curve, though single readings can be large; an effect the other way counts as inactive or inconclusive.
SMILES,miR-21 FLuc,TDP1 cell noCPT,uPA surface inh,DT40 TDP1 CPT,TDP1 block
COc1cc(-c2cc(=O)c3c(O)c(OC)c(OC)c(OC)c3o2)cc(OC)c1OC,.,?,.,?,.
COc1ccc2oc(-c3ccc(O)cc3)cc(=O)c2c1,/,27µM,/,?,.
COc1ccc(-c2cccc(NS(=O)(=O)c3cc([N+](=O)[O-])ccc3C)c2)nn1,/,.,.,?,?
COc1cccc(C(=O)NNC(=O)C2CCCO2)c1 (stereo not drawn),.,.,.,.,.
CCCn1nc(C(=O)N2CCN(c3ccccn3)CC2)c2ccccc2c1=O,/,?,.,.,.
O=C(c1n[nH]c2ccccc12)N1CCN(S(=O)(=O)c2ccc(Cl)cc2)CC1,/,18µM,.,?,.
CCOC(=O)c1ccc(S(=O)(=O)N2CCN(C(=O)c3nn(C)c(=O)c4ccccc34)CC2)cc1,.,?,.,.,.
CCCCn1nc(C(=O)N2CCN(S(=O)(=O)c3ccccc3)CC2)c2ccccc2c1=O,/,15µM,.,?,.
CCOc1ncccc1C(=O)N1CCN(C(c2ccccc2)c2ccccc2)CC1,.,13µM,.,13µM,.
Cn1nc(C(=O)N2CCN(S(=O)(=O)c3ccc(Cl)cc3)CC2)c2ccccc2c1=O,/,23µM,.,?,.
CCOc1ncccc1C(=O)N1CCN(S(=O)(=O)c2cccs2)CC1,/,.,.,.,.
O=C(c1n[nH]c2ccccc12)N1CCCCC1,.,.,.,.,.
N#CC1=C(N)Oc2nc(-c3ccccc3)[nH]c2C1c1cccnc1 (stereo not drawn),.,?,.,.,.
Cc1ccc(CS(=O)(=O)Cc2ccc(C(=O)NCCc3ccc(Cl)cc3)o2)cc1,.,.,/,.,.
Cn1nc(C(=O)N2CCN(C(c3ccccc3)c3ccccc3)CC2)c2ccccc2c1=O,.,?,.,23µM,.
CSc1nc(COC(=O)NC(C)C)c(COC(=O)NC(C)C)n1Cc1ccccc1,/,13µM,/,9.2µM,/
CSCCC(NC(=O)OCc1ccccc1)C(=O)O (stereo not drawn),.,.,.,.,.
CCS(=O)(=O)N1CC(=O)N(c2ccc(Cl)cc2)C(C)(C(=O)NC2CCCCCC2)C1 (stereo not drawn),.,.,/,.,.
O=C(Nc1cccc([N+](=O)[O-])c1)c1ccncc1,.,.,.,.,.
O=C(CCNc1ccc(Cc2ccncc2)cc1)c1cccc([N+](=O)[O-])c1,.,16µM,.,18µM,.
O=C(CCNc1cccc(F)c1)c1cccc([N+](=O)[O-])c1,.,4.1µM,.,5.8µM,.
O=S(=O)(Cc1ccc(Cl)cc1)Oc1ccc(Cl)cc1,/,?,.,.,/
CCOC(=O)[C@]12CCC=C1N(Cc1ccc(Cl)cc1Cl)C(=O)[C@H](CC(=O)N1CCC(c3ccccc3)CC1)C2,/,18µM,/,?,/
CCOC(=O)[C@]12CCCC=C1N(Cc1ccc(Cl)cc1Cl)C(=O)[C@H](CC(=O)N1CCN(C(=O)c3ccco3)CC1)C2,/,16µM,/,?,/
CCOC(=O)[C@]12CCCC=C1N(Cc1ccc(Cl)cc1Cl)C(=O)[C@H](CC(=O)N1CCC(c3ccccc3)CC1)C2,/,18µM,/,16µM,/
SMILES,miR-21 FLuc,TDP1 cell noCPT,uPA surface inh,DT40 TDP1 CPT,TDP1 block
CCOC(=O)[C@]12CCC=C1N(Cc1ccc(Cl)cc1Cl)C(=O)[C@H](CC(=O)N1CCOCC1)C2,/,21µM,/,?,/
CCOC(=O)[C@]12CCCC=C1N(Cc1ccc(Cl)cc1Cl)C(=O)[C@H](CC(=O)N1CCSCC1)C2,/,.,/,.,/
CC(=O)Nc1ccc(-c2ccnc3c2CC(C)(C(=O)Nc2ccc4c(c2)OCO4)O3)cc1 (stereo not drawn),/,?,/,18µM,/
CC1(C(=O)Nc2cccc(OC(F)(F)F)c2)Cc2c(-c3ccc(C(N)=O)cc3)ccnc2O1 (stereo not drawn),/,16µM,/,?,/
CC(=O)Nc1ccc(-c2ccnc3c2CC(C)(C(=O)Nc2ccc(Cl)c(C(F)(F)F)c2)O3)cc1 (stereo not drawn),/,23µM,/,15µM,/
CC1(C(=O)Nc2cccc(Oc3ccccc3)c2)Cc2c(-c3ccc4c(c3)OCO4)ccnc2O1 (stereo not drawn),/,13µM,/,?,/
CN(C)c1ccc(-c2ccnc3c2CC(C)(C(=O)Nc2cccc(C(F)(F)F)c2)O3)cc1 (stereo not drawn),/,?,/,.,/
CN(C)c1ccc(-c2ccnc3c2CC(C)(C(=O)Nc2ccc(Cl)c(C(F)(F)F)c2)O3)cc1 (stereo not drawn),/,5.2µM,/,?,/
O=C(Nc1ccc2oc(-c3ccccc3F)nc2c1)c1ccccc1Cl,.,13µM,/,?,.[12.3 µM]
COc1ccc(C(=O)Nc2ccc3oc(-c4ccc(OC)cc4)nc3c2)cc1,.,.,/,.,.
COc1ccc(-c2nc3cc(NC(=O)c4ccc(C)cc4)ccc3o2)cc1Cl,.,?,/,21µM,.[12.3 µM]
Cc1ccc(C(=O)Nc2ccc3oc(-c4ccc(C(C)(C)C)cc4)nc3c2)cc1,.,8.2µM,/,?,.[12.3 µM]
Cc1ccc2oc(-c3cc(NC(=O)c4oc5ccccc5c4C)ccc3Cl)nc2c1,.,.,/,0.016µM,.[2.28 µM]
COc1ccccc1-c1nc2cc(NC(=O)c3ccccc3Cl)ccc2o1,.,?,/,?,.[12.3 µM]
CCc1nnc(SC(C)C(=O)Nc2nccs2)n1C (stereo not drawn),.,.,.,.,.
CCOc1ccc(C(=O)Nc2ccc(-c3nc4cc(C)ccc4o3)cc2)cc1,.,/,/,/,.
O=C(Nc1ccc2oc(-c3cccc(Cl)c3Cl)nc2c1)c1cccc(Br)c1,.,?,/,13µM,.[12.3 µM]
N#Cc1ccc(C(=O)Nc2ccc(Cl)c(-c3nc4cc(Cl)ccc4o3)c2)c(F)c1,.,18µM,/,23µM,.
O=C(Nc1ccc2oc(-c3cccc4c(Br)cccc34)nc2c1)c1cccc(Cl)c1,.,?,/,.,.[12.3 µM]
CC(C)c1ccc2oc(-c3cc(NC(=O)c4cccnc4)ccc3Cl)nc2c1,.,16µM,/,?,/
CCOc1ccc(C(=O)Nc2ccc(-c3nc4cc(CC)ccc4o3)cc2)cc1,.,?,/,3.7µM,.[12.3 µM]
O=C1CNC(=S)N1Cc1ccccc1Cl,.,.,.,.,/
COc1ccc(NC(=S)NC(=NS(=O)(=O)c2ccc(Cl)cc2)c2ccccc2)cc1,/,?,.,?,.
O=C(O)CC(C(=O)Nc1cccc(C(F)(F)F)c1)C1CCCO1 (stereo not drawn),.,.,.,.,.
COc1ccc(C(=O)Nc2ccc3oc(-c4ccc5ccccc5c4)nc3c2)cc1Br,.,18µM,/,18µM,.[12.3 µM]
Cc1ccc(C(=O)Nc2ccc3oc(-c4cc(Br)ccc4Cl)nc3c2)cc1,.,?,/,23µM,.[2.28 µM]
CCc1ccc2oc(-c3ccc(NC(=O)c4ccc(OC)c(Br)c4)cc3)nc2c1,.,.,/,.,.[2.28 µM]
CC(C)CN1CCN(Cc2cccn2-c2ccccn2)CC1CCO (stereo not drawn),.,.,.,.,.
Cc1cccc(NC(=S)NNC(=S)NCc2ccccc2)c1,.,.,/,.,.
